Measured values reported in PubChem BioAssay (NCI).
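All cell lines were grown in 96-well plates and treated with compound for 48 hours. GI50 marks 50% less growth. TGI denotes the concentration required for complete inhibition of growth.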

Columns and labels:
Experiment in all cases: NCI-60 cell line screen, 48 h; in the data active = GI50 below about 0.43 µM; inactive = the rest
MALME-3M melanoma = tested on: MALME-3M melanoma
NCI-H460 lung = tested on: NCI-H460 lung
T-47D breast = tested on: T-47D breast
TK-10 renal = tested on: TK-10 renal
MDA-MB-435 = tested on: MDA-MB-435
CAKI-1 renal = tested on: CAKI-1 renal
SF-268 CNS = tested on: SF-268 CNS
MDA-N = tested on: MDA-N
CCRF-CEM leukemia = tested on: CCRF-CEM leukemia
OVCAR-3 ovarian = tested on: OVCAR-3 ovarian
SNB-75 CNS = tested on: SNB-75 CNS
MDA-MB-231 breast = tested on: MDA-MB-231 breast
SF-539 CNS = tested on: SF-539 CNS
UACC-62 melanoma = tested on: UACC-62 melanoma
RXF 393 renal = tested on: RXF 393 renal
SNB-19 CNS = tested on: SNB-19 CNS
NCI/ADR-RES ovarian = tested on: NCI/ADR-RES ovarian
LOX IMVI melanoma = tested on: LOX IMVI melanoma
HL-60(TB) leukemia = tested on: HL-60(TB) leukemia
HCC-2998 colon = tested on: HCC-2998 colon
ACHN renal = tested on: ACHN renal
A549 NSCLC = tested on: A549 NSCLC
NCI-H322M lung = tested on: NCI-H322M lung
IGROV1 ovarian = tested on: IGROV1 ovarian
HOP-92 NSCLC = tested on: HOP-92 NSCLC
SR leukemia = tested on: SR leukemia
COLO 205 colon = tested on: COLO 205 colon
786-0 renal = tested on: 786-0 renal
BT-549 breast = tested on: BT-549 breast
HT29 colon = tested on: HT29 colon
A498 renal = tested on: A498 renal
HS 578T breast = tested on: HS 578T breast
HCT-15 colon = tested on: HCT-15 colon
SF-295 CNS = tested on: SF-295 CNS
HCT-116 colon = tested on: HCT-116 colon
UACC-257 melanoma = tested on: UACC-257 melanoma
RPMI-8226 leukemia = tested on: RPMI-8226 leukemia
SK-MEL-5 melanoma = tested on: SK-MEL-5 melanoma
DU-145 prostate = tested on: DU-145 prostate
NCI-H23 lung = tested on: NCI-H23 lung
OVCAR-4 ovarian = tested on: OVCAR-4 ovarian
SK-MEL-28 melanoma = tested on: SK-MEL-28 melanoma
SK-OV-3 ovarian = tested on: SK-OV-3 ovarian
NCI-H226 lung = tested on: NCI-H226 lung
OVCAR-8 ovarian = tested on: OVCAR-8 ovarian
SN12C renal = tested on: SN12C renal
MCF7 breast = tested on: MCF7 breast
K-562 leukemia = tested on: K-562 leukemia
OVCAR-5 ovarian = tested on: OVCAR-5 ovarian
UO-31 renal = tested on: UO-31 renal
U251 CNS = tested on: U251 CNS
EKVX NSCLC = tested on: EKVX NSCLC
KM12 colon = tested on: KM12 colon
SK-MEL-2 melanoma = tested on: SK-MEL-2 melanoma
HOP-62 NSCLC = tested on: HOP-62 NSCLC
SW-620 colon = tested on: SW-620 colon
M14 melanoma = tested on: M14 melanoma
NCI-H522 lung = tested on: NCI-H522 lung
PC-3 prostate = tested on: PC-3 prostate

N#Cc1cc([N+](=O)[O-])cc([N+](=O)[O-])c1N
27.6 µM: TGI (MALME-3M melanoma)
inactive: GI50 (MALME-3M melanoma) 11.3 µM | GI50 (NCI-H460 lung) 3.73 µM | GI50 (T-47D breast) 4.22 µM | GI50 (TK-10 renal) > 100 µM | GI50 (MDA-MB-435) 12.8 µM | GI50 (CAKI-1 renal) 14.5 µM | GI50 (SF-268 CNS) 22.9 µM | GI50 (MDA-N) 16.5 µM | GI50 (CCRF-CEM leukemia) 25.3 µM | GI50 (OVCAR-3 ovarian) 16 µM | GI50 (SNB-75 CNS) 26.9 µM | GI50 (MDA-MB-231 breast) > 100 µM | GI50 (SF-539 CNS) 14.1 µM | GI50 (UACC-62 melanoma) 17.2 µM | GI50 (RXF 393 renal) 18.6 µM | GI50 (SNB-19 CNS) > 100 µM | GI50 (NCI/ADR-RES ovarian) > 100 µM | GI50 (LOX IMVI melanoma) > 100 µM | GI50 (HL-60(TB) leukemia) > 100 µM | GI50 (HCC-2998 colon) > 100 µM | GI50 (ACHN renal) > 100 µM | GI50 (A549 NSCLC) 59.6 µM | GI50 (NCI-H322M lung) 74.1 µM | GI50 (IGROV1 ovarian) 19 µM | GI50 (HOP-92 NSCLC) 30.1 µM | GI50 (SR leukemia) 14.4 µM | GI50 (COLO 205 colon) > 100 µM | GI50 (786-0 renal) 17 µM | GI50 (BT-549 breast) 1670 nM | GI50 (HT29 colon) > 100 µM | GI50 (A498 renal) > 100 µM | GI50 (HS 578T breast) 49.6 µM | GI50 (HCT-15 colon) > 100 µM | GI50 (SF-295 CNS) > 100 µM | GI50 (HCT-116 colon) 45.4 µM | GI50 (UACC-257 melanoma) 70.8 µM | GI50 (RPMI-8226 leukemia) 14.6 µM | GI50 (SK-MEL-5 melanoma) 2900 nM | GI50 (DU-145 prostate) 19.2 µM | GI50 (NCI-H23 lung) 81.5 µM | GI50 (OVCAR-4 ovarian) 17.4 µM | GI50 (SK-MEL-28 melanoma) > 100 µM | GI50 (SK-OV-3 ovarian) > 100 µM | GI50 (NCI-H226 lung) 76.7 µM | GI50 (OVCAR-8 ovarian) > 100 µM | GI50 (SN12C renal) > 100 µM | GI50 (MCF7 breast) 31.2 µM | GI50 (K-562 leukemia) 29.5 µM | GI50 (OVCAR-5 ovarian) 95 µM | GI50 (UO-31 renal) > 100 µM | GI50 (U251 CNS) 39.9 µM | GI50 (EKVX NSCLC) 32.1 µM | GI50 (KM12 colon) 18.7 µM | GI50 (SK-MEL-2 melanoma) 29 µM | GI50 (HOP-62 NSCLC) > 100 µM | GI50 (SW-620 colon) 31.3 µM | GI50 (M14 melanoma) 51.1 µM | GI50 (NCI-H522 lung) 2630 nM | GI50 (PC-3 prostate) 44.3 µM
36.9 µM: TGI (MDA-MB-435)
13 µM: TGI (NCI-H522 lung)
33.6 µM: TGI (786-0 renal)
76.5 µM: TGI (SNB-75 CNS)
39.8 µM: TGI (KM12 colon)
3.37 µM: TGI (BT-549 breast)
36.8 µM: TGI (OVCAR-4 ovarian)
71.8 µM: TGI (SK-MEL-2 melanoma)
88.5 µM: TGI (EKVX NSCLC)
34.4 µM: TGI (CAKI-1 renal)
36.2 µM: TGI (MDA-N)
18.8 µM: TGI (T-47D breast)
37.5 µM: TGI (RXF 393 renal) | TGI (DU-145 prostate)
15 µM: TGI (SK-MEL-5 melanoma)
36.4 µM: TGI (SF-539 CNS) | TGI (IGROV1 ovarian)
93.3 µM: TGI (HOP-92 NSCLC)
> 100 µM: TGI (NCI-H460 lung) | TGI (TK-10 renal) | TGI (CCRF-CEM leukemia) | TGI (MDA-MB-231 breast) | TGI (SNB-19 CNS) | TGI (NCI/ADR-RES ovarian) | TGI (LOX IMVI melanoma) | TGI (HL-60(TB) leukemia) | TGI (HCC-2998 colon) | TGI (ACHN renal) | TGI (A549 NSCLC) | TGI (NCI-H322M lung) | TGI (SR leukemia) | TGI (COLO 205 colon) | TGI (HT29 colon) | TGI (A498 renal) | TGI (HS 578T breast) | TGI (HCT-15 colon) | TGI (SF-295 CNS) | TGI (HCT-116 colon) | TGI (UACC-257 melanoma) | TGI (RPMI-8226 leukemia) | TGI (NCI-H23 lung) | TGI (SK-MEL-28 melanoma) | TGI (SK-OV-3 ovarian) | TGI (NCI-H226 lung) | TGI (OVCAR-8 ovarian) | TGI (SN12C renal) | TGI (MCF7 breast) | TGI (OVCAR-5 ovarian) | TGI (UO-31 renal) | TGI (U251 CNS) | TGI (HOP-62 NSCLC) | TGI (SW-620 colon) | TGI (M14 melanoma) | TGI (PC-3 prostate)
34.6 µM: TGI (UACC-62 melanoma)
89 µM: TGI (K-562 leukemia)
30.3 µM: TGI (OVCAR-3 ovarian)
62.5 µM: TGI (SF-268 CNS)
